{
  "sequences": {"note": "The chains behind the UniProt entries cited, without tags or fusion partners.", "UniProt P61073, whole entry": "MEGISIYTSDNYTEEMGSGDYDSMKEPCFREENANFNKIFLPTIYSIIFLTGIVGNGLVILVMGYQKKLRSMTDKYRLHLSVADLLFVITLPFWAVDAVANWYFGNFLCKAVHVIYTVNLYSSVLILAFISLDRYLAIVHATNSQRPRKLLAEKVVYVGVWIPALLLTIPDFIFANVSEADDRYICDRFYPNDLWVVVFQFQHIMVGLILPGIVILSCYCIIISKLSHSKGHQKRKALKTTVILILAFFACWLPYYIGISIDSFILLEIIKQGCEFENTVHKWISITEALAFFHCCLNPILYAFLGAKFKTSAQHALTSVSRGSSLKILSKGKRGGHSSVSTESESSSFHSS"},
  "source": "patent US9045563B2",
  "about": "“CXC chemokine receptor 4 (CXCR4) antagonistic polypeptide” (priority 2007, dated 2015)",
  "key": {"CXCR4 [1]": {"biological_target": "T1, CXCR4 (Homo sapiens, UniProt P61073)", "test": "Fluorescent binding assay on whole living cells, CXCL12-TR competition on HEK293 EGFP-hCXCR4", "design": "expressed in transfected cells", "settings": "CXCR4 expressing HEK293 cells", "experimental": "FIG. 17. CXCR4 antagonistic activities of ALB derivatives. […] CXCR4 or CCR5 expressing HEK293 cells were treated with CXCR4 agonist CXCL12 (10 nM) or CCR5 agonist CCL5 (20 nM), respectively, in the absence (no ALB) or presence of indicated ALB derivatives (50 μM). Calcium responses were recorded as described. Data shown are mean values±standard deviation derived from duplicates relative to peak calcium responses after treatment with agonists only (100%). […] CXCR4 expressing HEK293 cells were treated with Texas Red labeled CXCL12 (CXCL12-Tr) in the presence or absence of ALB peptides. Real-time fluorescence monitoring of ligand-receptor interactions was carried out as described."}, "CXCR4 [2]": {"biological_target": "T1, CXCR4", "test": "Ca2+ mobilization in CXCR4 expressing HEK293 cells (indo-1)", "type": "cell-based", "design": "expressed in transfected cells", "settings": "50 μM derivative, 10 nM CXCL12", "experimental": "Ca^2+ responses were recorded.\nFIG. 17. CXCR4 antagonistic activities of ALB derivatives. […] CXCR4 or CCR5 expressing HEK293 cells were treated with CXCR4 agonist CXCL12 (10 nM) or CCR5 agonist CCL5 (20 nM), respectively, in the absence (no ALB) or presence of indicated ALB derivatives (50 μM). Calcium responses were recorded as described. Data shown are mean values±standard deviation derived from duplicates relative to peak calcium responses after treatment with agonists only (100%). […] CXCR4 expressing HEK293 cells were treated with Texas Red labeled CXCL12 (CXCL12-Tr) in the presence or absence of ALB peptides. Real-time fluorescence monitoring of ligand-receptor interactions was carried out as described. Shown are bound CXCL12-Tr levels in the presence of ALB peptides relative to CXCL12-Tr only treated cells (100% bound). Values were derived from a duplicate experiment."}},
  "data": [
    {"smiles": "CC(C)C[C@H](NC(=O)[C@@H](NC(=O)[C@@H]1CCCN1C(=O)[C@@H](NC(=O)[C@H](CO)NC(=O)[C@@H](NC(=O)[C@H](CCC(N)=O)NC(=O)[C@@H]1CCCN1C(=O)[C@@H](NC(=O)[C@H](CCCCN)NC(=O)[C@H](CCCCN)NC(=O)[C@@H](NC(=O)[C@H](Cc1ccc(O)cc1)NC(=O)[C@H](CCCNC(=N)N)NC(=O)[C@@H](N)C(C)C)[C@@H](C)O)C(C)C)C(C)C)[C@@H](C)O)[C@@H](C)O)C(=O)O", "note": "[ALB409-423, VRYTKKVPQVSTPTL]", "values": [
      {"measurement": "inhibition of binding of CXCL12-Tr to the CXCR4 receptor by ALB derivatives", "setting": "CXCR4 [1]", "value": "did not inhibit"},
      {"measurement": "inhibition of CXCL12 mediated Ca2+ responses by ALB derivatives", "setting": "CXCR4 [2]", "value": "did not inhibit"}
    ]}
  ]
}
